## scFv variants of Ab-14 (heavy chain) against a SARS-CoV-2 spike peptide

All variants were tested on one target, the spike HR2 peptide PDVDLGDISGINAS (SARS-CoV-2).

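These sequences belong to a second round, designed from the earlier measurements on random variants of the parent. Group labels follow the data file (Ctrl: baseline library sampled from a position-specific scoring matrix, with some repeated check sequences; En: ensemble of fine-tuned language models; HC: hill climbing; Gen: genetic algorithm; Gibbs: Gibbs sampling; a sequence that several methods proposed may carry one label only). The assay is AlphaSeq: two haploid yeast populations carry antibody and antigen on their surface. Binding brings cells together so that they mate, and sequencing counts the barcode pairs among the diploids. Read counts were normalised to the haploid input and turned into Kd by a linear fit to BCL2-family pairs of known affinity, for each replicate. The assay was run in six technical replicates.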

Parent scFv Ab-14: VH joined to VL by three GGGGS repeats. Changes lie in the heavy chain CDRs alone.
VH: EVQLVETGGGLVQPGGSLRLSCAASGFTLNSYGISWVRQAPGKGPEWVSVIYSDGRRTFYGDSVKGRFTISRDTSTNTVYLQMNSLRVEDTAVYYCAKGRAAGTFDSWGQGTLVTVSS
VL: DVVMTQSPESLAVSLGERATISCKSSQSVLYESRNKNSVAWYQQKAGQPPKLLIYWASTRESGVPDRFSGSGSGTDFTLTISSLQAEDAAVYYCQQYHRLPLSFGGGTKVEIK

Variants are written as CDR1, CDR2 and CDR3 of the heavy chain (limits as in the source). Parent: GFTLNSYGIS, VIYSDGRRTFYGDSVK, GRAAGTFDS.
Variants here have more than six changes.
Each Kd is an estimate from the mating assay, the geometric mean of the replicates in which the pair was seen; lower is stronger.
Where no diploid with the target was found in any replicate, the entry reads "no signal": below detection, most likely a poor binder, though not proof of it.
Nonspecific signal, from three strains lacking the peptide, appeared in 1% of pairings of all heavy chain designs, centred on 120 nM (5% of these signals below 7.0 nM); values are not corrected for it.
The parent sequence was in this pool as ten entries: three were never detected, three once, and four in most replicates, with averages from 2.2 nM to 240 nM.
A sequence measured in both rounds can read differently, since the two assays cover different ranges.
The authors averaged sequences with at least three values out of six and counted those with two or fewer as poor binders.

For GFDLNEYGIS | VIYADGMRTFYSDSVK | GNVAGTFDL [En_Gen], the assay gave 540 pM (6 of 6 replicates). The variant GFDLNEYGIS | VIYADGVRTAYSDDVK | GENAGTFDL [En_Gen] gave 440 pM (5 of 6 replicates). The variant GFNLDEYGIS | VIYADGNRVFYANTVK | GLLGIGYSV [En_Gibbs] showed no signal (0 of 6 replicates). With GFDLNEYGIS | VIYADGMRTAYIDSVK | GENAGTFDQ [En_Gen] the result was 98 nM (1 of 6 replicates). The variant GFTLNSYGIS | VIYADGRRVWYSDSVK | GRAAGPFCQ [Ctrl] gave no signal (0 of 6 replicates). With GFTLDEYGIS | VIYADGRRTFYADSVK | GNQAGTFDQ [En_HC] the result was 480 pM (6 of 6 replicates). For GNDLQEYGIS | VIYADGLRVMYANSVK | GQLDVVVLV [En_Gibbs], the assay gave no signal (0 of 6 replicates). With GFDLNEYGIS | VIYADGQRTAYSDSVK | GNTAGTFDV [En_Gen] the result was 1.9 nM (6 of 6 replicates).

The variant GFDLNEYGIS | VIYADGRRTFYADSVK | GNQAGTFTS [En_HC] showed 770 pM (6 of 6 replicates). For GFYLNEYGIS | VIYADGIRSRYANKVK | GNGAGTLDD [En_Gibbs], the assay gave no signal (0 of 6 replicates). The variant GFDLNEYGIS | VIYADGSRVAYAQNVK | GKNDAISSS [En_Gibbs] showed no signal (0 of 6 replicates). The variant GFDLNEYGIS | VIYADGRRTFYSDSVK | GANAGTFDK [En_HC] showed 540 pM (6 of 6 replicates). For GFDLDEYGIS | VIYADGKRMAYQADVK | GVQGGNALV [En_Gibbs], the assay gave no signal (0 of 6 replicates). The variant GFDLNEYGIS | VIYADGRRQAYADSVK | GNVAGTFDV [En_Gen] gave 320 pM (6 of 6 replicates). The variant GFDLNEYGIS | VIYADGRRTAYADKVK | GNTAGTFDV [En_Gen] gave 270 pM (6 of 6 replicates). The variant GFDLNEYGIS | VIYADGIRTFYADSVK | GNAAGTFDV [En_HC] gave 590 pM (6 of 6 replicates).

For GFDLNEYGIS | VIYADGRRTAYIDSVK | GEAAGTFDA [En_HC], the assay gave 330 pM (6 of 6 replicates). With GFDLNEYGIS | VIYADGRRTSYIDSVK | GEIAGTFDS [En_HC] the result was 450 pM (6 of 6 replicates). The variant GKGLDEYGVS | VIYADGKRHSYAEDVK | GGIAGQFLV [En_Gibbs] showed no signal (0 of 6 replicates). The variant GFDLNEYGIS | VIYADGIRTFYADSVK | GNAAGTFDM [En_HC] gave 610 pM (6 of 6 replicates). With GFDLNEYGVS | VIYADGQRRAYAANFK | GVNIGGLDI [En_Gibbs] the result was no signal (0 of 6 replicates). For GDSLAEYGIS | VIYADGSRSKYADAFK | GQVAGYFGV [En_Gibbs], the assay gave no signal (0 of 6 replicates). With GFDLDEYGIS | VIYADGMRTAYTDSVK | GNVAGTFDT [En_Gen] the result was 360 pM (6 of 6 replicates). The variant GFDLDEYGIS | VIYADGTRTAYADSVK | GNVAGTFDV [En_Gen] showed 420 pM (6 of 6 replicates).

For GEDLNSYGIS | VIYADGLRTAYADNFK | GNGEGQFDM [En_Gibbs], the assay gave 880 nM (3 of 6 replicates). The variant GFQLNEYGIS | VIYADGHRSEYADKVK | GGINSSFLV [En_Gibbs] gave 500 nM (1 of 6 replicates). For GSDLEEYGIS | VIYADGMRSKYAQDVK | GQQGVVASM [En_Gibbs], the assay gave no signal (0 of 6 replicates). The variant GFNLDEYGIS | VIYADGRRTFYSDNVK | GEEAGTFDI [En_HC] showed 230 pM (6 of 6 replicates). For GFDIDEFGIS | VIYADGKRTSYSDSVK | GQLGNAFDL [En_Gibbs], the assay gave 160 nM (1 of 6 replicates). For GFDLNEYGIS | VIYADGVRTAYADDVK | GNQAGTFDL [En_Gen], the assay gave 630 pM (6 of 6 replicates). With GFNLDEYGIS | VIYADGIRTVYADSVK | GGLKMHSLT [En_Gibbs] the result was no signal (0 of 6 replicates). The variant GFDLNEYGIS | VIYADGRRTYYQDSVK | GEIAGTFDQ [En_HC] showed 280 pM (6 of 6 replicates).

For GFDLDEYGIS | VIYADGRRTFYADSVK | GETAGTFFS [En_HC], the assay gave 2.5 nM (6 of 6 replicates). With GFDINEYGVS | VIYADGMRTAYRDSVK | GEGKWINLI [En_Gibbs] the result was no signal (0 of 6 replicates). The variant GFDLNEYGIS | VIYADGRRTFYADSVK | GTNGGTFDI [En_HC] showed 1.9 nM (6 of 6 replicates). For GFSLNEYGIS | VIYADGKRQVYANKVK | GNKTMTFDI [En_Gibbs], the assay gave no signal (0 of 6 replicates). With GFDLNEYGIS | VIYADGVRTAYVDSVK | GTNAGTFDV [En_Gen] the result was 320 pM (6 of 6 replicates). For GFALNEYGIS | VIYADGSRSAYTESVK | GVHNGDVNI [En_Gibbs], the assay gave no signal (0 of 6 replicates). With GFSLEEYGIS | VIYADGKRDVYADSVK | GHGSGWFDI [En_Gibbs] the result was 1.6 nM (6 of 6 replicates). The variant GFDLEDYGIS | VIYADGRRTAYIDSVK | GEAAGTFDQ [En_HC] showed 380 pM (6 of 6 replicates).

The variant GFDLNEYGIS | VIYADGVRTAYADSVK | GNVAGTFDV [En_Gen] gave 330 pM (6 of 6 replicates). The variant GFSLDEYGIS | VIYADGRRTFYSDDVK | GNVAGTFDS [En_HC] showed 340 pM (6 of 6 replicates). The variant GFDLNEYGIS | VIYADGMRTAYTDSVK | GQNAGTFDV [En_Gen] showed 290 pM (6 of 6 replicates). For GQQLDQYGIS | VIYADGVRTSYTNSVK | GVHAGTFMQ [En_Gibbs], the assay gave no signal (0 of 6 replicates). For GFDLNEYGIS | VIYADGMRTAYADNVK | GNEAGTFDL [En_Gen], the assay gave no signal (0 of 6 replicates).

Repeated from above, the 6 best binders with a signal in all replicates:

The variant GFNLDEYGIS | VIYADGRRTFYSDNVK | GEEAGTFDI [En_HC] gave 230 pM (6 of 6 replicates).
The variant GFDLNEYGIS | VIYADGRRTAYADKVK | GNTAGTFDV [En_Gen] gave 270 pM (6 of 6 replicates).
The variant GFDLNEYGIS | VIYADGRRTYYQDSVK | GEIAGTFDQ [En_HC] gave 280 pM (6 of 6 replicates).
The variant GFDLNEYGIS | VIYADGMRTAYTDSVK | GQNAGTFDV [En_Gen] gave 290 pM (6 of 6 replicates).
The variant GFDLNEYGIS | VIYADGRRQAYADSVK | GNVAGTFDV [En_Gen] gave 320 pM (6 of 6 replicates).
The variant GFDLNEYGIS | VIYADGVRTAYVDSVK | GTNAGTFDV [En_Gen] gave 320 pM (6 of 6 replicates).

Values reported by Li et al. 2023, doi:10.1038/s41467-023-39022-2 (FLAb copy).